Only a part is listed here, and it is no random draw. Calls of active or inactive are those of the source. Rule as the data show it: active = inhibition above about 22% (passing the limit was not always enough); inactive = the rest.

Protein sequences, listed by entry. Tags and fused reporters are not part of them.
UniProt P35372, whole entry, looked up: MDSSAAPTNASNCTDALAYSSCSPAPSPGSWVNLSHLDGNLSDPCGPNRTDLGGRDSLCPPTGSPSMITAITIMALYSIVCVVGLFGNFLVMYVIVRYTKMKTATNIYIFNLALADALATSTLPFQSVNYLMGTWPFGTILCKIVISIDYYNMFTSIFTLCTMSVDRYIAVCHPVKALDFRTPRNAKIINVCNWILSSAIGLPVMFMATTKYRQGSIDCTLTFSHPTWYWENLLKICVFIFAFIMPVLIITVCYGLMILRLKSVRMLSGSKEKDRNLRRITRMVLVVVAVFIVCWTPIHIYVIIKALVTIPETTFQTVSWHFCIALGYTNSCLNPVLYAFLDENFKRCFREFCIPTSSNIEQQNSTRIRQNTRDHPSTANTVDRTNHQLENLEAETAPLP
UniProt P41143, whole entry, looked up: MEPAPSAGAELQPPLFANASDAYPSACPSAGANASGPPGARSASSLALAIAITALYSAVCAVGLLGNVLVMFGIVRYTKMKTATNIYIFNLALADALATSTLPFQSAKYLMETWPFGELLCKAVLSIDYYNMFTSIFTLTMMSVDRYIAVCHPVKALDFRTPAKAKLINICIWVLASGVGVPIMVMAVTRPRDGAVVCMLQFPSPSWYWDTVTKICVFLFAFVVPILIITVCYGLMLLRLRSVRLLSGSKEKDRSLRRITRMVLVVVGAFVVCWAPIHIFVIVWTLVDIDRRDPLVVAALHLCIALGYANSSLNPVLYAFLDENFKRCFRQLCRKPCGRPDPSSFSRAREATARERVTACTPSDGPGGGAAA

For this assay, the target named is Mu-type opioid receptor (Homo sapiens) + Delta-type opioid receptor (Homo sapiens) (UniProt P35372+P41143). The assay is described as follows: OPRM1-OPRD1 heterodimer inverse agonism – cell-based, luminescence, primary screen (AID 504357).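 Also: 0% = cells with DMSO and 100% = wells without cells with DMSO.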 The following applies: cell-based MOR-DOR heterodimer luminescence, at 9.3 µM, hits give high values.
Consider `Clc1ccc(N2CCN(Cc3c[nH]c4ncccc34)CC2)cc1`, for which the inhibition was inactive: -7.35%. The same measure for `O=C(Cn1c(=O)n(CC(=O)NCc2ccccc2)c2ccccc21)NCc1ccccc1`: inactive: 3.12%; for `Cc1ccc2c(c1)C1CN(C)CCC1N2S(=O)(=O)c1ccccc1` (centres undefined): inactive: -0.51%; for `CN1CCC(N(C)c2ccc(C(N)=O)cc2[N+](=O)[O-])CC1`: inactive: 3.75%. As for `CC(C)[C@H](NC(=O)N1CCn2c1nc1ccccc12)C(=O)NCCc1ccccc1`, the figure is inactive: 7.94%; as for `O=C1CC(N2CCC(n3c(=O)[nH]c4ccccc43)CC2)C(=O)N1Cc1ccccc1` (centres undefined), inactive: 7.73%. As for `O=C(CCCCCNC(=O)N1CCn2c1nc1ccccc12)NCc1ccc(F)cc1`, the figure is inactive: 6.3%.

`Cc1ccc2c(c1)C1CN(C)CCC1N2C(=O)c1cccc(S(=O)(=O)N(C)C)c1` (centres undefined): the inhibition is inactive: 11.1%.

`CC(C)N(C(=O)Cn1c(SCC(=O)Nc2nccs2)nc2ccccc21)C(C)C`: the inhibition is inactive: 6.16%. For `CSc1nc(N)nc2c1ncn2CC(=O)NCC(c1ccccc1)c1ccccc1`, the inhibition was inactive: 11.4%. The same measure for `CC1CN(CCn2cnc3c(N)ncnc32)CC(C)O1` (centres undefined): inactive: 16.1%. The same measure for `O=C(OC1CN2CCC1CC2)c1ccccc1` (centres undefined): inactive: 22.6%; for `CC(O)CNc1nc2ccccc2n1CC(=O)NC12CC3CC(CC(C3)C1)C2` (centres undefined): inactive: -7.26%. As for `CC(C(=O)Nc1ccc2c(c1)OCO2)n1cnc2c1c(=O)n(C)c(=O)n2C` (centres undefined), the figure is inactive: 11.5%; as for `Cc1ccc(OP(=O)(Nc2ccccn2)Oc2ccc(C)cc2)cc1`, inactive: 8.48%. Consider `CC(=O)NC(SC(=S)N(CC(C)C)CC(C)C)C(Cl)(Cl)Cl` (centres undefined), for which the inhibition is inactive: -17.5%.

On to `FC(F)(F)c1nc2ccccc2n1CCNc1nc(CN2CCCCC2)cs1`, for which the inhibition was inactive: 14.6%. As to `Cn1c(=O)c2c(ncn2CC(=O)Nc2ccccc2N2CCOCC2)n(C)c1=O`, the inhibition was inactive: 6.75%. As for `CCc1cccc(CC)c1N(COC)C(=O)Cn1c(C(C)O)nc2ccccc21` (centres undefined), the figure is inactive: 11.9%; as for `CC(/C=N/NC(=O)Cn1cnc2c1c(=O)n(C)c(=O)n2C)=C\c1ccco1`, inactive: 12.1%. The same measure for `CC(C)NC(=O)Cn1cnc2c1c(=O)n(C)c(=O)n2C`: inactive: 8.64%; for `Cc1sc2ncnc(NC3CCN(Cc4ccccc4)CC3)c2c1C`: inactive: -13.8%; for `COC(=O)c1cc2c(s1)N=C(c1ccccc1)N(C)P2(=O)N1CCOCC1` (centres undefined): inactive: -4.8%. The same measure for `Cn1c(=O)c2c(ncn2CC(=O)NC2CCCCC2)n(C)c1=O`: inactive: 8.11%. With `Cc1nc2ccccc2n1CC(=O)NC1CCCC1`, the inhibition was inactive: 16.7%. As for `CCOCN(C(=O)Cn1c(CO)nc2ccccc21)c1c(C)cccc1CC`, the figure is inactive: -11.3%; as for `Cc1ccc(Cn2nnnc2CN2CCC(n3nnc4ccccc43)CC2)cc1`, inactive: 14.2%; as for `O=c1oc2ccccc2c2c1ncn2CCN1CCOCC1`, inactive: 7.94%. The same measure for `COc1ccc(OC)c(C(=O)CSc2nc3ccccc3n2CC(=O)NC(C)(C)C)c1`: inactive: 12.4%.

As to `O=C(Cn1c2[n+](c3ccc(C(F)(F)F)cc31)CCCCC2)Nc1ccccc1`, the inhibition is inactive: 4.91%.

For `COc1ccccc1OCCSc1nc2ccccc2n1CC(N)=O`, the inhibition is inactive: 16.4%.

As to `C[C@H]1OP(=O)(Oc2ccccc2)[C@H](O)[C@H](O)[C@H]1N=[N+]=[N-]` (some centres undefined), the inhibition is inactive: 5.6%. As to `Cc1cc2ncn(C3CC(=O)N(Cc4ccc(N5CCCC5=O)cc4)C3=O)c2cc1C` (centres undefined), the inhibition was inactive: 8.67%. As for `CCN(CC)CCn1c(NS(=O)(=O)c2ccc(Cl)cc2)nc2ccccc21`, the inhibition is inactive: -8.32%. As for `CC(C)N(C(=O)Cn1c(SCC(=O)NC2CC2)nc2ccccc21)C(C)C`, the figure is inactive: 12.4%; as for `O=P(Nc1nc2ccccc2s1)(c1ccccc1)c1ccccc1`, inactive: 16.1%; as for `Cn1c(=O)c2c(ncn2CC(=O)Nc2nc(-c3ccc(F)c(F)c3)cs2)n(C)c1=O`, inactive: 5.08%. The same measure for `Cn1c(=O)n(CC(=O)Nc2cccnc2)c2ccccc21`: inactive: 5.59%; for `N=c1n(CCN2CCCC2)c2ccccc2n1CC(O)c1ccco1` (centres undefined): inactive: 22.6%; for `Cn1c(=O)c2c(ncn2CC(=O)N2CCOCC2)n(C)c1=O`: inactive: 14.3%.

Consider `C[C@H](NC(=O)N1CCn2c1nc1ccccc12)C(=O)NCCc1ccccc1`, for which the inhibition is inactive: 17.3%. For the molecule `CC(O)CNc1nc2ccccc2n1CC(=O)NCC(F)(F)F` (centres undefined), the inhibition was inactive: 10.6%. With `O=C(CSc1nc2ccccc2n1CC(=O)N1CCCC1)N1CCN(C(=O)c2ccco2)CC1`, the inhibition is inactive: 3.54%. The same measure for `CCN(CC)CCn1c(N)nc2ccccc21`: inactive: 1.42%; for `Cc1ccc(C(C(=O)NC2CCCCC2)N(Cc2ccco2)C(=O)Cn2cnc3ccccc32)cc1` (centres undefined): inactive: -15.5%; for `CCN(CC)CCn1c(NCc2ccccn2)nc2ccccc21`: inactive: -0.82%. The same measure for `O=P(Nc1ccccn1)(c1ccc(Br)cc1)c1ccc(Br)cc1`: inactive: 10.9%; for `CCN(CC)CCn1c(=N)n(CC(=O)c2ccc(C)cc2)c2ccccc21`: inactive: -49.4%; for `NC(=O)Cn1c2[n+](c3ccccc31)CC(O)CS2` (centres undefined): inactive: 18.2%. As for `CCC(=O)Nc1ccc(NC(=O)/C=C/c2ccc(Cl)cc2)cc1`, the figure is inactive: 0.53%; as for `c1ccc2c(c1)nc(NCc1ccc3c(c1)OCO3)n2CCN1CCOCC1`, inactive: 25.5%.

Take `COc1ccc(N)c([N+](=O)[O-])c1[N+](=O)[O-]`: the inhibition is inactive: 9.92%.

Turning to `CC(C)(C)NC(=O)Cn1c(Cl)nc2ccccc21`, the inhibition was inactive: 13.5%.

With `Cc1ccc(/C=N/NC(=O)Cn2cnc3c2c(=O)n(C)c(=O)n3C)s1`, the inhibition is inactive: -2.19%. Consider `COC(=O)[C@H](CC(C)C)NC(=O)Cn1cnc2c(NCc3ccccc3)ncnc21`, for which the inhibition was inactive: 12.5%.

With `O=C(Cn1cnc2ccccc21)Nc1ccc2c(c1)OCCCO2`, the inhibition was inactive: 0.15%. The same measure for `Cc1nnc(NC(=O)Cn2cnc3c2c(=O)n(C)c(=O)n3C)s1`: inactive: 7.71%; for `CC(O)c1nc2ccccc2n1CC(=O)Nc1ccc2c(c1)OCCO2` (centres undefined): inactive: -0.49%; for `CSCC[C@H](NC(=O)N1CCn2c1nc1ccccc12)C(=O)NCC1CCCO1` (some centres undefined): inactive: 14.7%.

The inhibition is the relative decrease from the control value, in per cent.

Source of the values: PubChem BioAssay AID504357 (The Scripps Research Institute Molecular Screening Center, 2011).
